Experimental data as given in patent publication US20250144099A1, “INK4 TUMOR SUPPRESSOR PROTEINS MEDIATE RESISTANCE TO CDK4/6 KINASE INHIBITORS” (MEMORIAL SLOAN-KETTERING CANCER CENTER, priority 2021, published 2025).
Read-outs that look alike come from different tables or passages of the source.

By UniProt entry, the sequences of proteins in these tests, tags left out. Where a name states a change or a piece, a line headed by the entry shows the natural chain unless it says otherwise.
UniProt P11802: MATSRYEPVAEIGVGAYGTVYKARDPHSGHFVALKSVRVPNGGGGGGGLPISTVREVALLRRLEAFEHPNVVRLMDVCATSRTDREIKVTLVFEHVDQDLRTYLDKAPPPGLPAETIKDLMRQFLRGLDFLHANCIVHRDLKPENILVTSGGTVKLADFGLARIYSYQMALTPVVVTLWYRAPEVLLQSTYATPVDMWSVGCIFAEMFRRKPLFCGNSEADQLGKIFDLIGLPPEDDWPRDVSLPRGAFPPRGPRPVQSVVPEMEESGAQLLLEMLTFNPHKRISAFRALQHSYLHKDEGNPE

Molecular target: CDK4 (Homo sapiens, UniProt P11802)
Conditions: pre-treatment with 100 nM abemaciclib

kinase activity of CDK4 reduced compared to untreated (IP-CDK4 from resistant CDK6-high (FAT1 loss) MCF7 cells): 82%
kinase activity of CDK4 reduced compared to untreated (IP-CDK4 from sensitive MCF7 parental cells): 84%
Compound: CCN1CCN(Cc2ccc(Nc3ncc(F)c(-c4cc(F)c5nc(C)n(C(C)C)c5c4)n3)nc2)CC1 [abemaciclib]
